Measurements taken from ChEMBL document CHEMBL1806354, “Identification of N-propylnoraporphin-11-yl 5-(1,2-dithiolan-3-yl)pentanoate as a new anti-Parkinson's agent possessing a dopamine D2 and serotonin 5-HT1A dual-agonist profile” (J Med Chem, 2011).

Protein sequences, listed by entry. Tags and fused reporters are not part of them.
UniProt P14416, whole entry: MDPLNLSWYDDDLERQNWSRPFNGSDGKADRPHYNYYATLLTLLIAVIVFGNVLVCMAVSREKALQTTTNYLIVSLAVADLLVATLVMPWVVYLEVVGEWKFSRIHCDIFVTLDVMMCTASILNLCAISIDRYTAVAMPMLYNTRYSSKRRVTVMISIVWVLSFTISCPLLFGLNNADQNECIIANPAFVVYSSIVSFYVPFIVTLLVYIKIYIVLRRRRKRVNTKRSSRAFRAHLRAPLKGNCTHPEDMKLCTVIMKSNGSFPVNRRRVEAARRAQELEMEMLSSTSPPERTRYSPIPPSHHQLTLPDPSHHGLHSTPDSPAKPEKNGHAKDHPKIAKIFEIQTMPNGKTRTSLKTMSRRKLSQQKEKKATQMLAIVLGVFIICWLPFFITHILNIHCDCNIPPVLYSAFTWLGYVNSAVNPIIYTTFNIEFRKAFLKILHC

Biological target: D(2) dopamine receptor (Homo sapiens, UniProt P14416)
Assay: Displacement of [3H]spiperone from dopamine D2 receptor expressed in HEK293 cells after 50 mins by beta liquid scintillation counter
Format: cell-based

`CCCN1CCc2cccc3c2C1Cc1cccc(O)c1-3` (racemic) was tested, and the Ki was 854 nM.
